Test results as given in PMC8289286, “In Silico, In Vitro, and In Vivo Evaluation of Precipitation Inhibitors in Supersaturated Lipid-Based Formulations of Venetoclax” (Molecular Pharmaceutics, 2021).

Test: In vitro PI testing by solvent shift in FaSSIF
Format: physicochemical
Protocol: The in vitro PI testing for venetoclax was done by means of a solvent shift. The effect of a fully hydrated PI (dissolved in FaSSIF) was compared against the PI in the formulation. Thus, the employed PIs HPMC, HPMCAS, Eudragit EPO, PVP, PVP/VA, and Pluronic F108 were dissolved in either FaSSIF or either suspended or dissolved in the sLBF. […] The vials were sealed and placed in a water bath shaker at 200 shakes/min and 37 °C (GLS400, Grant Instruments, UK). […] The samples were filtered with a 0.2 μm syringe filter (Whatman Spartan 13/0.2) and samples that contained lipids were additionally centrifuged for 30 min at 21,380g and 37 °C (Mikro 200 R, Hettich GmbH, Germany). […] A pure (nondiluted) and a diluted sample were analyzed by HPLC as described above. Additionally, the solubility of venetoclax was determined in FaSSIF with dissolved PI.

For “hydroxypropyl methylcellulose acetate succinate [HPMCAS]”, the “solubilized venetoclax, sLBF-PI” value was 5.1 ± 0.2% and the “solubilized venetoclax, sLBF-aqPI” value was 0.5 ± 0.02%.
